This is an account of results in publication PMC3479967, “Drug-Drug Interactions Potential of Icariin and Its Intestinal Metabolites via Inhibition of Intestinal UDP-Glucuronosyltransferases” (Evidence-based Complementary and Alternative Medicine : eCAM, 2012).

The target of one series is T1, UGT1A4 (Homo sapiens, UniProt P22310).
T1 construct: purchased BD Gentest Corp. (Woburn, MA, USA); host or cells: baculovirus-infected insect cells
T1 sequence (P22310 29-534): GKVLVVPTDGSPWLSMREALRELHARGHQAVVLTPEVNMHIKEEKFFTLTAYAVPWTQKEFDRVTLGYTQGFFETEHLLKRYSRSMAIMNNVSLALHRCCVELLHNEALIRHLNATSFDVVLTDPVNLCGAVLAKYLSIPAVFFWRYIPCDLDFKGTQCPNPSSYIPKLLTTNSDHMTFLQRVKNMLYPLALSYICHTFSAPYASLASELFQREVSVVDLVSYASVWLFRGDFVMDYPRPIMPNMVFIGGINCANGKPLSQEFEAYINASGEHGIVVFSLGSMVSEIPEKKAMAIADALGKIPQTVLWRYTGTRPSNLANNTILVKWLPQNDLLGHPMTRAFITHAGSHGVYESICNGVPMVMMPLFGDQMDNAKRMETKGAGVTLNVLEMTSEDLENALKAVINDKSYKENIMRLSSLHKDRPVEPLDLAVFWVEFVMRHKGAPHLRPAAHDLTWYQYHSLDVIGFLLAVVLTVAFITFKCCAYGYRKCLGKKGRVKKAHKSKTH
Kind of series: Inhibition of recombinant UGT1A4 activity (TFP glucuronidation). It is filed as biochemical. On the procedure:
TFP was used as the substrate for UGT1A4. Trifluoperazine glucuronide (TFPG) formation was measured using a modification of the method reported. […] Reactions were initiated by the addition of UDPGA and incubations were performed at 37°C in a shaking water bath for 20 min. Incubations were terminated by the addition of 4% acetic acid/96% methanol (0.2 mL) and then centrifuged at 20,500 ×g for 15 min. A 40 μL aliquot of the supernatant fraction was injected into the HPLC column. […] A gradient mobile phase consisting initially of 30 : 70, mobile phase A (acetonitrile) verse mobile phase B (0.5% formic acid/water) was brought to a composition of 90 : 10 in 10 min which was held for 7 min, all at a flow rate of 1 mL/min. Column eluant was monitored by UV absorbance 256 nm. […] The negative controls are the incubation without UDPGA.

Series [1] in a line: Calculation of possible maximum concentrations in gut lumen. Details: species or system human. As to conditions: calculated, after a single oral administration of Epimedium pubescens decoction. On the procedure:
Since the concentrations of icariin in human gut lumen are not available, the values were calculated based on physiological parameters of human and the dosage of a single oral administration of a Chinese traditional decoction of Epimedium pubescens in human volunteers. […] The reported V L was 1.65 L/70 kg. […] The concentrations of icariin intestinal metabolites in human gut lumen are not available, but it has been reported that about 70% icariin will be transformed into its intestinal metabolites in the intestinal lumen. […] Here we arbitrarily assumed the ratio in rat equaled to that in human blood, and the values of their oral bioavailability were consistent.

In the case of Icariside II, the Ki at UGT1A4 (recombinant UGT1A4, TFP substrate, mean ± standard error, read-out: Ki against UGT1A4) was 1900 ± 300 nM. In addition, the IC50 at UGT1A4 (recombinant human UGT1A4, 50 μM TFP, mean ± SD) worked out at 2900 ± 100 nM. Besides, in series [1], the “Possible maximum concentration in human gut lumen” value is about 3.7 µM.

As usually defined, the Ki is a dissociation constant, usually derived from enzyme kinetics or from competition with a known ligand. By IC50 is commonly meant the concentration that gives 50% inhibition.
